Source: patent US20070020704A1 (published 2007)
pIC50: −log10 of the molar value.

Chains of the proteins cited; added tags and fusions are not shown. Residues count along the entry.
UniProt P35918, 804-1169: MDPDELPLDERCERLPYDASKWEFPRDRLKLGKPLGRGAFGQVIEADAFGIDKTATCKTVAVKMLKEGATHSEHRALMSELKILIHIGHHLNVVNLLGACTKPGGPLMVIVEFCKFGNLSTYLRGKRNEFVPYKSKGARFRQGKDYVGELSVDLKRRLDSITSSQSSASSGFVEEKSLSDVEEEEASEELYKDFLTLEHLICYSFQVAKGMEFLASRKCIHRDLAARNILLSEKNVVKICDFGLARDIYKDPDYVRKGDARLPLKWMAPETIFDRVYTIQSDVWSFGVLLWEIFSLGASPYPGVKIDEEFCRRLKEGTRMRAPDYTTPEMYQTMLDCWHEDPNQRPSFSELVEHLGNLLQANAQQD

Target: mVEGFR (Mus musculus, UniProt P35918)
Assay: biochemical

CNC(=O)c1cc(Oc2ccc(NC(=O)Nc3ccc(Cl)c(C(F)(F)F)c3)cc2)ccn1
pIC50: 9.00
